scFv variants of Ab-14 (light chain) against a SARS-CoV-2 spike peptide

Source: Li et al. 2023 (doi:10.1038/s41467-023-39022-2), MIT Lincoln Laboratory and A-Alpha Bio; data file from the FLAb repository.

The target is the same throughout: PDVDLGDISGINAS, from the HR2 region of SARS-CoV-2 spike.

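These sequences belong to a second round, designed from the earlier measurements on random variants of the parent. Group labels follow the data file (Ctrl: baseline library sampled from a position-specific scoring matrix, with some repeated check sequences; En: ensemble of fine-tuned language models; GP: Gaussian process model; HC: hill climbing; Gen: genetic algorithm; Gibbs: Gibbs sampling; a sequence that several methods proposed may carry one label only). The scFvs were displayed on barcoded MATa yeast, the peptide on MATalpha yeast. After mating in shaken culture at 30 °C for 16 h, diploids were selected and their barcode pairs sequenced. The ratio of observed to expected reads was calibrated, replicate by replicate, on BCL2-family standards whose Kd was known from biolayer interferometry. The assay was run in six technical replicates.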

Each scFv is VH, three GGGGS repeats, VL, as in the parent Ab-14, and differs from it in the CDRs of the light chain only.
VH: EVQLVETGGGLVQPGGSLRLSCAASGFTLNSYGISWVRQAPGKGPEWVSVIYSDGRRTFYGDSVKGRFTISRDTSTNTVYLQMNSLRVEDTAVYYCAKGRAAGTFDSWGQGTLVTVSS
VL: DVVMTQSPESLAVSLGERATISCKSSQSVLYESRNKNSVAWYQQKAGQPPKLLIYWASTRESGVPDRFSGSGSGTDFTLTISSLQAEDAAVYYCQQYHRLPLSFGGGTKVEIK

Each variant is given by its three light chain CDRs, as the data file delimits them; those of the parent are KSSQSVLYESRNKNSVA, WASTRES, QQYHRLPLS.
Affinities are written as log10 Kd with Kd in nM; a lower number is a better binder.
The mean shown is taken over the replicates in which the pair was detected.
"not detected" marks a missing value. The strain was present, yet no cells mated with the target were sequenced in any replicate, which points to weak or no binding.
The range of this assay differs from that of the first round, and the authors advise against merging the two.

| CDR-L1 | CDR-L2 | CDR-L3 | group | mean, log10 nM | detected | control signals |
|---|---|---|---|---|---|---|
| KVRQSTLYESRNKNSVA | MASTRES | QQYHRLPLS | GP_HC | 0.51 | 6/6 | 0/18 |
| QLGAVQDMTSKNKNSVA | EQNTREN | QQYHRLPLS | En_HC | 0.34 | 6/6 | 1/18 |
| NITQIFDNMGDQRSNVA | NGETLFH | QQYARLPFL | En_Gibbs | 0.72 | 6/6 | 0/18 |
| KSSDSVLYESRNKNSVA | WASTRES | QQYHRAPLS | Ctrl | not detected | 0/6 | 1/18 |
| KSTQSVLYESRNKNSVA | NASTRES | VQYHRLPLS | Ctrl | not detected | 0/6 | 2/18 |
| KASQSQDYESRNSKSVA | DASTRLS | QQYHRLPLS | GP_Gibbs | -0.20 | 6/6 | 4/18 |
| KLGSMVLLEHGNRNSIA | QQSTREE | QQYDRLPLS | En_HC | 0.33 | 6/6 | 2/18 |
| KLSMQVMMESRNTNSVA | EANTREE | QQYHRLPLS | GP_Gibbs | 1.51 | 6/6 | 1/18 |
| KLSWDCTTDLNQMHSIA | ESEVAVD | QQYAHLPLT | En_Gibbs | 1.71 | 6/6 | 3/18 |
| KLSQSVLYEQRNKNNVA | GASTRES | QQYHRLPLS | GP_Gen | -0.45 | 6/6 | 2/18 |
| HMSMLTLMGQRHVNSVA | QMTTREN | QQYDRLPLS | En_Gen | 0.87 | 6/6 | 0/18 |
| MFSQLFMYGSRNVNSVA | QASTRES | QQYDRLPLI | En_HC | 1.41 | 6/6 | 0/18 |
| KFSQSVLYESRTKNSVA | NASTRNS | QDYHRLPLS | GP_HC | 0.73 | 6/6 | 0/18 |
| NISQMFFMETKNVNNVA | QTSTREE | QDYHRLPLS | En_HC | 0.31 | 6/6 | 0/18 |
| KLMCSMEYESRNKNSVA | NASTRES | QQYHRLPLS | GP_Gibbs | -0.35 | 6/6 | 0/18 |
| KLTAKQNPYDQNYSNIA | EETNSLQ | QQYKHLPLS | En_Gibbs | 2.93 | 6/6 | 1/18 |
| TIGGTLMYGVRNRSNVA | EVSERLN | QQYDRLPLM | En_Gen | 1.54 | 6/6 | 2/18 |
| KSSISYLYESLNKNSVA | EASTRES | QQYHRLPLS | GP_HC | 1.03 | 6/6 | 0/18 |
| KSSQSWLYGSHNKNSVA | QASTRES | QQYHRLPLS | Ctrl | 1.01 | 6/6 | 0/18 |
| NISGFMKTLSAHINNVA | DMTNRED | QQYDRLPLS | En_Gen | 0.42 | 6/6 | 2/18 |
| QLKTEVIDNQQLRNSIA | ENELRAM | QQYLSLPLS | En_Gibbs | 1.22 | 6/6 | 0/18 |
| KSLQSQEYESRNKNSVA | NASTRED | QQYHRLPLS | GP_HC | 0.90 | 6/6 | 3/18 |
| KLSQSVPYEQRNKNSVA | EASTRES | QQYHRLPLS | GP_Gen | 0.05 | 6/6 | 1/18 |
| KLAMSTLYESRNKNSVA | WASTRES | QQYHRLPLS | GP_HC | 2.12 | 6/6 | 1/18 |
| KISMLINTTFEESNNVA | EMVTREK | QQYNRLPLS | En_Gen | 1.60 | 4/6 | 0/18 |
| KVSDSAAFLSRNVNSVA | DNSTRGS | QQYHRLPLS | En_HC | 0.79 | 6/6 | 1/18 |
| KSSQSQLYESRNFNSVA | NASTRED | QQYHRLPLS | GP_HC | 0.04 | 6/6 | 0/18 |
| TLYGLSNSMSKNKNNVA | EMTTRED | QQYDRLPLV | En_Gen | 0.71 | 6/6 | 0/18 |
| MISQVMNTLTRLGNNVA | DLAEREA | QQYFRLPLS | En_Gen | 2.23 | 2/6 | 0/18 |
| KISMSYRYESENKNSIA | ELVTRMS | QQYHRLPLS | En_HC | 1.00 | 6/6 | 0/18 |
| KASQSWLYESRNKNSVA | GASFRES | QQYHRLPLS | GP_HC | -0.26 | 6/6 | 1/18 |
| KIYQSGPYESRNKNSVA | SASTRES | QQYFRLPLS | GP_Gibbs | 0.34 | 6/6 | 1/18 |
| RSSQTVQYEERNKNSVA | WASTRES | QQYHRLPLS | Ctrl | 1.19 | 1/6 | 0/18 |
| KLSQSVLYESRNVNSVA | DASTRES | QQYHRLPLS | GP_Gen | -0.35 | 6/6 | 0/18 |
| NVDISENVNYNHKAAVA | GHDERVG | QQYSRLPLA | En_Gibbs | 0.19 | 6/6 | 1/18 |
| KSSQSVLWESRNKNSVA | NASYRES | QQYHRLPLS | Ctrl | 1.53 | 6/6 | 1/18 |
| KLSQGWLQESRNANNVA | NASRREQ | QQYHRLPLS | GP_Gibbs | 0.12 | 6/6 | 1/18 |
| QLSVFELQGMSWMQSIA | QADHRTE | QQFSRLPLV | En_Gibbs | 0.55 | 6/6 | 1/18 |
| KIGLGTNGEKFQSNSVA | QTSTREE | QQYHRLPLS | En_HC | 0.23 | 6/6 | 1/18 |
| KVFPSELGEERNKMSVA | QASTRES | QQYHRLPLS | GP_Gibbs | 1.46 | 6/6 | 0/18 |
| KLYQSMNFLGRVMNSIA | DASTIWD | QQYHRLPLS | En_HC | 2.06 | 4/6 | 1/18 |
| KISQMVRVGSTMSNSIA | EEVTRAK | QQYHRLPLS | En_Gen | 0.30 | 6/6 | 0/18 |
| KLDQSELYQSRNKQSVA | NASQRES | QQYHRLPLS | GP_Gibbs | 0.09 | 6/6 | 1/18 |
| NIYQAMHTLMQQKNNVA | DVTNRNR | QQYNRLPLS | En_Gen | 0.29 | 6/6 | 0/18 |
| KLSQSVLYESRNRNSVA | WASIRES | QQYHRLPLS | Ctrl | 0.67 | 6/6 | 0/18 |
| TLYGLSVSMSKNVNNVA | EMTTRED | QQYDRLPLV | En_Gen | 1.10 | 6/6 | 0/18 |
| NLPMKELQMSWNVNNVA | DSEQKMK | QQYSRLPLM | En_Gibbs | 0.69 | 6/6 | 0/18 |
| TLGQVTMQLSRDKNSVA | DASTSED | QQYDRLPLS | En_HC | 0.75 | 6/6 | 1/18 |
| KIHCRELWYQGQWQNIA | EAAKLVE | QQYALLPLA | En_Gibbs | 2.46 | 4/6 | 1/18 |
| QSSQSVQYESINKNSVA | WASTRES | QQYHRLPLS | Ctrl | 1.13 | 3/6 | 0/18 |
| KSSQSVPYESRNKNSVA | RASTRES | QQYHRLPLS | Ctrl | 0.67 | 6/6 | 0/18 |
| KSSWSVLYESLNKNSVA | HASTRED | QQYHRLPLS | GP_HC | 0.21 | 6/6 | 0/18 |
| HFSQMLEPGAQNFNAVA | NSDRVTE | QQYHKLPLA | En_Gibbs | 0.30 | 6/6 | 0/18 |
| KSSQSYGYESRNKNSVA | NASTRES | QQYHRLPLS | Ctrl | -0.25 | 6/6 | 2/18 |
| KLSITHQVESINKSNVA | EMVNRES | QQYDRLPLS | En_HC | 1.57 | 6/6 | 1/18 |
| KVSQSWLYESRNKNSVA | NASQRES | QQYHRLPLS | GP_Gen | -0.22 | 6/6 | 0/18 |
| KLSSFHNVESINKSNVA | EMVTREN | QQYDRLPLS | En_HC | 1.83 | 4/6 | 0/18 |
| KSSWSELYESRNKNSVA | DASTRES | QQYHRLPLS | GP_HC | -0.46 | 6/6 | 2/18 |
| HTQHLGFGDPAHANSIA | ERSQVCA | QQYFRLPLI | En_Gibbs | 0.35 | 6/6 | 0/18 |
| HSSQSVLHEINNSNSVA | WCTTRES | QQYHGLPLS | Ctrl | not detected | 0/6 | 1/18 |
| KLQGSVGYEERNKNSVA | GASQRED | QQYHRLPLS | GP_Gibbs | 0.01 | 6/6 | 0/18 |
| KTSQSVLYESRNKNSVA | YASTRES | QQKHRLPLS | Ctrl | not detected | 0/6 | 0/18 |
| MMSQVTGSGQRHRNNVA | QTSMREP | QQYDRLPLI | En_Gen | 0.87 | 6/6 | 1/18 |
| KMQQSQPYESRMSNAVA | NASYRMS | QQYHRLPLS | GP_Gibbs | 0.47 | 6/6 | 1/18 |
| ALTRQNLQNTDNLNSIA | EQNQTQE | QQYFRLPFA | En_Gibbs | 1.05 | 6/6 | 1/18 |
| KMVKWESEGDRHAANIA | NANKATD | QQYYRLPLA | En_Gibbs | 0.11 | 6/6 | 1/18 |
| KLVWSELYESRNKNSVA | GASQRES | QQYHRLPLS | GP_Gibbs | -0.33 | 6/6 | 2/18 |
| KFDLLMTDEKNANKNVA | GNVHHMA | QQYERLPLS | En_Gibbs | 0.43 | 6/6 | 1/18 |
| KVSEFMKGLMMRTDSIA | DNNTRNS | QQYDRLPLS | En_Gen | 1.28 | 6/6 | 1/18 |
| KLSQSVEYESRNKNSVA | EASTREQ | QQYHRLPLS | GP_Gen | -0.19 | 6/6 | 2/18 |
| RFDQTEQMGIRDYNSVA | NGSQSAT | QHYSRLPIS | En_Gibbs | 2.33 | 6/6 | 1/18 |
| KLRQSCLYESRNKNNVA | MASQRCS | QQYHRLPLS | GP_Gibbs | 0.49 | 6/6 | 0/18 |
| KIMQSYLGEMRNCNSVA | NASQRES | QQYHRLPLS | GP_Gibbs | 1.12 | 6/6 | 2/18 |
| KFSQKVLYESRAMNSVA | DASQRLS | QQYHRLPLS | GP_Gibbs | 0.94 | 6/6 | 1/18 |
| KLGMTLNELMIKKNNVA | DLVEREN | QQYHRLPLS | En_Gen | 0.51 | 6/6 | 0/18 |
| RLTEHYSEKKAADASVA | DASTRND | QQYHRLPLF | En_Gibbs | -0.13 | 6/6 | 0/18 |
| KSSQPVRYESSNKNSVA | WESERES | QQYHRLPLS | Ctrl | not detected | 0/6 | 0/18 |
| KLSQGVLYESRWKNSVA | GASTRES | QQYHRLPLS | GP_HC | 0.28 | 6/6 | 2/18 |
| KFYQSWLYESRNKNSVA | NASQRES | QQYHRLPLS | GP_Gen | -0.05 | 6/6 | 1/18 |

As a blank, each scFv also met three strains without target: over all light chain designs, 4% of these pairings were detected, typically at 2.64 and seldom below 1.59. For each scFv, signals with the empty controls are counted beside the result.
The authors' rule: three or more of the six replicates give a measured affinity, fewer mean a poor binder.